Laboratory results taken from publication PMC4776135, “Small Molecule Inhibition of Ligand-Stimulated RAGE-DIAPH1 Signal Transduction” (Scientific Reports, 2016).

Assays:
[1] = system: phospho/total ERK1/2 in primary murine aortic SMCs; experiment: CML-AGE-stimulated ERK1/2 phosphorylation, Western blot; details: 1 µM compound, 1.5 h pretreatment; CML-AGE 10 µg/ml 20 min; p < 0.05
[2] = system: Il6 mRNA in primary murine aortic endothelial cells (MAECs); experiment: CML-AGE-mediated upregulation of Il6 mRNA, real-time quantitative PCR; details: 1 µM compound 1.5 h, CML-AGE 10 µg/ml 6 h
[3] = system: phospho/total Akt in primary murine aortic SMCs; experiment: CML-AGE-stimulated Akt phosphorylation, Western blot; details: 1 µM compound, 1.5 h pretreatment; CML-AGE 10 µg/ml 20 min; p < 0.05
Tnfa mRNA in kidney = experiment: CML-AGE infusion in vivo, kidney Tnfa mRNA; details: mice; four doses 5 mg/kg i.p. every 12 h; CML-AGE 150 µg i.p.; kidney 4 h later; p < 0.05
[4] = system: diabetic mouse heart (ex vivo); experiment: Isolated perfused diabetic heart, ischemia/reperfusion, LVDP recovery; details: streptozotocin-diabetic mouse hearts ex vivo; 1 µM compound; 30 min ischemia, 60 min reperfusion; p < 0.05

SMILES | effect on CML-AGE-mediated phospho/total ERK1/2 [1] | effect on CML-AGE-mediated upregulation of Il6 [2] | effect on CML-AGE-mediated stimulation of phospho/total-Akt [3] | effect on CML-AGE-mediated upregulation of Tnfa mRNA in kidney (Tnfa mRNA in kidney) | left ventricular developed pressure (LVDP) functional recovery after ischemia/reperfusion vs DMSO vehicle [4]
Cc1c(Cl)cccc1NC(=O)CNC(=O)c1ccccc1F | did not significantly affect | significant suppression | did not significantly suppress | significant suppression | 
COC(=O)c1cc(-c2ccc(NC(C)=O)cc2)nc2ccccc12 | significant suppression | significant suppression | significant suppression | significant suppression | statistically-significantly higher LVDP
Cc1cc2n(c1)CCn1c(C)ccc1-2 | significant suppression |  | significant suppression | significant suppression | 
CC1=NN(c2nc3ccccc3[nH]2)C(=O)C1CCC(C)C (centres unmarked) | significant suppression | significant suppression | significant suppression | significant suppression | statistically-significantly higher LVDP
